## Apparent affinities of Ab-14 variants for a coronavirus HR2 peptide

Reference: Engelhart et al. 2022, doi:10.1038/s41597-022-01779-4. File: FLAb, binding data.

Antigen: PDVDLGDISGINAS, a 14-residue peptide of the SARS-CoV-2 spike HR2 region.

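The parent was found by panning a naive human phage display library on the peptide. Library AAYL49 holds single substitutions and randomly drawn double and triple substitutions in the CDRs. The scFvs were displayed on barcoded MATa yeast, the peptide on MATalpha yeast. Pairs that bind mate more often; barcode pairs of the diploids are counted by sequencing. The ratio of observed to expected reads was calibrated, replicate by replicate, on BCL2-family standards whose Kd was known from biolayer interferometry. Mating was done three times.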

Each scFv is VH, a 15-residue (Gly4Ser)3 linker, VL, as in the parent Ab-14, and differs from it in the CDRs of the heavy chain only.
VH: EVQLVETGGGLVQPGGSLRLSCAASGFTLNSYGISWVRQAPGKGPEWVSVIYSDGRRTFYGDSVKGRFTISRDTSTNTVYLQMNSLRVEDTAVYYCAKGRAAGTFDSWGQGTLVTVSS
VL: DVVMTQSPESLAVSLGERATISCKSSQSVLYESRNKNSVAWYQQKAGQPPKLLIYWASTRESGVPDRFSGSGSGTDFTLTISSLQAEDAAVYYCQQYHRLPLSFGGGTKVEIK

Sequences are complete VH domains.
Values are log10 of the apparent Kd in nM; lower means stronger binding.
Replicates are averaged; those with no signal do not enter the mean.
"nd" marks a missing value. The strain was present, yet no cells mated with the target were sequenced in any replicate, which points to weak or no binding.
Three control strains display no target. For library AAYL49, 15% of the pairings with them gave a signal, with a median of 4.06 and one signal in twenty below 2.83, so weak values seen in few replicates may be background.

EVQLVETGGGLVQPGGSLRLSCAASCFTFNSYGISWVRQAPGKGPEWVSVIYSDGRRTFYGDSVKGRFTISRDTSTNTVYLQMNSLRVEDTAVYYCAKSRAAGTFDSWGQGTLVTVSS: 4.16 (3 of 3 replicates).
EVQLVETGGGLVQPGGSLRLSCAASGFTWNSYGIGWVRQAPGKGPEWVSVIYSCGRRTFYGDSVKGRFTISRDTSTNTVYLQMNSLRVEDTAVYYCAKGRAAGTFDSWGQGTLVTVSS: nd (0 of 3 replicates).
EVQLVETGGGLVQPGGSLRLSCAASGFTLNSYGISWVRQAPGKGPEWVSVIYSDGRRTFYGDIVKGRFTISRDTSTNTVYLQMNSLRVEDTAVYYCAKGVAAGTFDSWGQGTLVTVSS: 3.14 (1 of 3 replicates).
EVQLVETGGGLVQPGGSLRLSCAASGFTLNSYGISWVRQAPGKGPEWVSVIYSDGRRTWYGDSVKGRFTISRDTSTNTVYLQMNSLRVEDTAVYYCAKGRAAGVFDSWGQGTLVTVSS: 4.25 (1 of 3 replicates).
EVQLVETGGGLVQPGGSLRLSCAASGFDLNSYGIAWVRQAPGKGPEWVSVIYSDGRRTFYGDSVKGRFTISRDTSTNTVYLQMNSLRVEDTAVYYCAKGRAAGDFDSWGQGTLVTVSS: nd (0 of 3 replicates).
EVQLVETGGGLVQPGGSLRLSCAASGFTLNNYGISWVRQAPGKGPEWVSVIYSDGRRHFYGDSVKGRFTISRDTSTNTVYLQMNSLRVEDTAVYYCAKGRAAGTDDSWGQGTLVTVSS: 3.51 (1 of 3 replicates).
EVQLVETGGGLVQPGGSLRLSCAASGFTLNSYIISWVRQAPGKGPEWVSVIYSDGRRTFYGDIVKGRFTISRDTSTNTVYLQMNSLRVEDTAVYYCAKGRKAGTFDSWGQGTLVTVSS: nd (0 of 3 replicates).
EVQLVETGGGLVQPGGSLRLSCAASGFTLNSYGISWVRQAPGKGPEWVSVIYSDGRRTFYGFHVKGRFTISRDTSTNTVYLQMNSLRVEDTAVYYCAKGRAAGTQDSWGQGTLVTVSS: 5.56 (1 of 3 replicates).
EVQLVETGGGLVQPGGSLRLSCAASGFTLNSYGIMWVRQAPGKGPEWVSVIYSMGRRTFYGDSVKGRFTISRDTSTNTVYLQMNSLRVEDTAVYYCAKGRAAGTFRSWGQGTLVTVSS: nd (0 of 3 replicates).
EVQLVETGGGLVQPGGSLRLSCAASGFTLNSYGISWVRQAPGKGPEWVSTIYSDGRRTFYGDSVKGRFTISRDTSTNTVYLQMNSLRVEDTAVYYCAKGMAAGTFISWGQGTLVTVSS: nd (0 of 3 replicates).
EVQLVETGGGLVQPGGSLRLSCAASGFTLNSKGISWVRQAPGKGPEWVSVQYSDGRRTFYGDKVKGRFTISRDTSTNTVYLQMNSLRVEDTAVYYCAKGRAAGTFDSWGQGTLVTVSS: 3.59 (1 of 3 replicates).
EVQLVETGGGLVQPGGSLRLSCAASGFGLNSYGISWVRQAPGKGPEWVSVIYSDGRRTFYGDSVKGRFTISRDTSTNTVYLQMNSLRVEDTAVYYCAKGRAAGTCDSWGQGTLVTVSS: 4.92 (3 of 3 replicates).
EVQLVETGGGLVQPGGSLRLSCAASDFTLNSYGISWVRQAPGKGPEWVSVIYSGGRRTFYGDSVKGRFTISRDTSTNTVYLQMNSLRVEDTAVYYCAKGRAWGTFDSWGQGTLVTVSS: nd (0 of 3 replicates).
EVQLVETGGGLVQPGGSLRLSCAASGFTLNSYGISWVRQAPGKGPEWVSCIYSDGRNTFYGLSVKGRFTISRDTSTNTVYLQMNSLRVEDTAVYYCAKGRAAGTFDSWGQGTLVTVSS: nd (0 of 3 replicates).
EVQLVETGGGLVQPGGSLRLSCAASGFTANSYGISWVRQAPGKGPEWVSVIYSDGRRTFYGDSVKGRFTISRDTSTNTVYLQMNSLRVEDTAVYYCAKFRAAGTVDSWGQGTLVTVSS: 3.06 (1 of 3 replicates).
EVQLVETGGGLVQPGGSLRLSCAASGGTLNSWGGSWVRQAPGKGPEWVSVIYSDGRRTFYGDSVKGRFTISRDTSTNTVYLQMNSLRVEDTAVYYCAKGRAAGTFDSWGQGTLVTVSS: nd (0 of 3 replicates).
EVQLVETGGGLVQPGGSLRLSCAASGFTLNSYGWSWVRQAPGKGPEWVSVIYSDGTRTFYGDSVKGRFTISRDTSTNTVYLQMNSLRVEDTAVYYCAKGRAAGTFDSWGQGTLVTVSS: 5.03 (1 of 3 replicates).
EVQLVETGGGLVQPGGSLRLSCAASHFTLNSYGISWVRQAPGKGPEWVSVIYSDGDRTFYGDSIKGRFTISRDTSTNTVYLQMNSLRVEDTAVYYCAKGRAAGTFDSWGQGTLVTVSS: nd (0 of 3 replicates).
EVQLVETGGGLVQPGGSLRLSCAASGFTLNSYGISWVRQAPGKGPEWVSVIYHDGRRTFYGDSVKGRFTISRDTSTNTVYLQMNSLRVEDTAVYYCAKGVAAGTFDLWGQGTLVTVSS: 1.66 (3 of 3 replicates).
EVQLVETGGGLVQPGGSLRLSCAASGFTLNSYQISWVRQAPGKGPEWVSVIYCDGRRTFYGGSVKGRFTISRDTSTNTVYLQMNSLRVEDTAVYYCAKGRAAGTFDSWGQGTLVTVSS: 3.30 (1 of 3 replicates).
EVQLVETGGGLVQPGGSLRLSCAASGFTLNSYGIDWVRQAPGKGPEWVSVIYSDGRRTYYGDSVKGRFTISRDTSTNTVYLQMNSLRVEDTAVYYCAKGRAAGTFDSWGQGTLVTVSS: nd (0 of 3 replicates).
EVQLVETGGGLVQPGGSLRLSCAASGFHLNSYGISWVRQAPGKGPEWVSVIYSDGRGTFYGDSVDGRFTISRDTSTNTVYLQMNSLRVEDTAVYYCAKGRAAGTFDSWGQGTLVTVSS: nd (0 of 3 replicates).
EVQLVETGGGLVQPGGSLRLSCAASGFALNSYGISWVRQAPGKGPEWVSVIYSDGRRTFYSDSVKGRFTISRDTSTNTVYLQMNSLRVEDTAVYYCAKGRAAGTFDKWGQGTLVTVSS: 2.62 (2 of 3 replicates).